The text below walks through data of ChEMBL document CHEMBL1134287, “Design and pharmacological activity of phosphinic acid based NAALADase inhibitors” (J Med Chem, 2001).

Amino acid sequences for entries named in this document (tags omitted).
UniProt P70627, whole entry: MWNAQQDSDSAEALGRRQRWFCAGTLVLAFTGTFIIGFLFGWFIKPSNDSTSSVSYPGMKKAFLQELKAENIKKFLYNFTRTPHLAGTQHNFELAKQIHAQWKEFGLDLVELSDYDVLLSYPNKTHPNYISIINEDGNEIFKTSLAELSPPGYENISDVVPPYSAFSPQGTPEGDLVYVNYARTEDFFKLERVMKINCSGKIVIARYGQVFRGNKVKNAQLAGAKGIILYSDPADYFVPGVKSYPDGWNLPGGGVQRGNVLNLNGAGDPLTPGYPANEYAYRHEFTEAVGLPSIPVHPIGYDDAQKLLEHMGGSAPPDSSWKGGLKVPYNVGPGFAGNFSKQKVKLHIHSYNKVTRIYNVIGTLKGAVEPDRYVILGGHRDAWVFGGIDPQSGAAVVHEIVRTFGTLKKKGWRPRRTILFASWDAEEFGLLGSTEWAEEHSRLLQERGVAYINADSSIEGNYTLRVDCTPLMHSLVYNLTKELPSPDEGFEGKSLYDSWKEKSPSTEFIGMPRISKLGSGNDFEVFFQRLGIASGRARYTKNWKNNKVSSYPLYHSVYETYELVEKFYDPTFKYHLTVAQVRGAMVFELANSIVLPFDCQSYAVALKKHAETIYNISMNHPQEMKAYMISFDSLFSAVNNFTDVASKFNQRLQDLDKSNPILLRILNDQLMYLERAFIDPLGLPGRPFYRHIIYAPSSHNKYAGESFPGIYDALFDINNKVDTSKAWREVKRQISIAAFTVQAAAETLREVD

The assay has as its target Glutamate carboxypeptidase 2 (Rattus norvegicus, UniProt P70627). Briefly: Inhibitory concentration against rat brain NAALADase (Folate hydrolase). In outline:
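IC50 values were determined by a method described elsewhere, from two to four independent determinations each. The values refer to racemic material.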

pIC50: −log10 of the molar value.

`O=C(O)CCC(CP(=O)(O)CNc1ccccc1)C(=O)O` (stereo unspecified) had a negative logarithm of the IC50 (pIC50) of 8.40.

Usually pIC50 stands for −log10 of the IC50, conventionally taken in molar units. Low readings indicate a high IC50, high ones a low IC50.
